Antibody variant affinities, Ab-14 heavy chain, assay 1

Values reported by Engelhart et al. 2022, doi:10.1038/s41597-022-01779-4 (FLAb copy).

Binding partner: SARS-CoV-2 spike HR2 peptide, sequence PDVDLGDISGINAS.

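Library AAYL49 holds single substitutions and randomly drawn double and triple substitutions in the CDRs. In AlphaSeq, yeast of one mating type display the scFv and yeast of the other type display the target. Pairs that bind mate more often; barcode pairs of the diploids are counted by sequencing. Read counts were normalised to the haploid input and turned into Kd by a linear fit to BCL2-family pairs of known affinity, for each replicate. Each pool was mated in three replicate cultures.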

Ab-14 is the parent antibody, in scFv form: VH, then a 15-residue (Gly4Ser)3 linker, then VL. The light chain is unchanged in all variants.
VH: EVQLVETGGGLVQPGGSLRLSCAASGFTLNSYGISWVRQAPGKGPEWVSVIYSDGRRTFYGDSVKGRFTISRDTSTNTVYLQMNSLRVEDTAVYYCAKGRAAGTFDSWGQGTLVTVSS
VL: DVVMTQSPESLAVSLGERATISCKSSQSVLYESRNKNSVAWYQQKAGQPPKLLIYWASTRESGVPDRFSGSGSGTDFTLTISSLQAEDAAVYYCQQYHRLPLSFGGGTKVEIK

Changes read parent residue, position, new residue, counted from the first residue of the VH shown. The read-out is the apparent dissociation constant on a log10 scale (nM): the lower, the stronger. A mean of the replicates is given; it leaves out those without a signal. Where no diploid with the target was found in that replicate, the entry reads "n.d.": below detection, most likely a poor binder, though not proof of it. In this assay the parent's reference entry averaged 0.65; its copy inside this library read 4.11 (one replicate of three). Nonspecific signal, from three strains lacking the peptide, appeared in 15% of pairings of library AAYL49, centred on 4.06 (5% of these signals below 2.83); values are not corrected for it. Also given: how often the same scFv was detected with the empty control strains, with their mean in brackets.

changes | log10 Kd, replicates | mean, log10 nM | control signals
F27S+F59C+S63H | n.d. / n.d. / n.d. | n.d. | 1 of 9 (3.60)
Y32F+S35T+T58C | n.d. / n.d. / n.d. | n.d. | 0 of 9
D62I+F105L | 3.55 / 3.41 / 3.96 | 3.64 | 3 of 9 (3.24)
Y60N+D62M+V64R | n.d. / 3.41 / 5.16 | 4.29 | 3 of 9 (4.98)
Y32K+G33C+G55Y | 4.72 / n.d. / n.d. | 4.72 | 1 of 9 (5.37)
L29C+G61L+A101Y | n.d. / n.d. / n.d. | n.d. | 0 of 9
Y32R+A101E+T104W | n.d. / n.d. / n.d. | n.d. | 1 of 9 (3.33)
L29H+D62W+F105C | n.d. / n.d. / n.d. | n.d. | 3 of 9 (2.81)
D54Y+S63G+G99Q | n.d. / 2.46 / n.d. | 2.46 | 0 of 9
D54S+G99P+G103M | n.d. / n.d. / n.d. | n.d. | 2 of 9 (3.83)
N30H+I51V+S53Y | n.d. / n.d. / n.d. | n.d. | 0 of 9
L29R+N30C+R56H | n.d. / 3.04 / n.d. | 3.04 | 1 of 9 (3.64)
R56D+G99D+F105Q | 1.27 / 1.39 / 1.39 | 1.35 | 4 of 9 (4.92)
I51D+G55E+R57G | n.d. / n.d. / 4.04 | 4.04 | 2 of 9 (4.23)
Y60A+V64L+F105S | n.d. / n.d. / n.d. | n.d. | 0 of 9
G33P+D54A+R57C | 3.90 / 3.56 / 3.96 | 3.81 | 2 of 9 (4.17)
N30H+A101D+F105A | 1.17 / 1.22 / 2.21 | 1.54 | 1 of 9 (3.90)
Y32T+R57P+G61V | n.d. / n.d. / n.d. | n.d. | 0 of 9
S35E+D54Y+T104Q | n.d. / n.d. / n.d. | n.d. | 0 of 9
T28K+Y32P+G55L | n.d. / n.d. / n.d. | n.d. | 2 of 9 (3.74)
G26E+T104K+D106R | 3.03 / n.d. / n.d. | 3.03 | 6 of 9 (4.31)
V50S+D62L+V64E | n.d. / n.d. / n.d. | n.d. | 0 of 9
T28R+G55D+A101W | n.d. / n.d. / n.d. | n.d. | 0 of 9
Y60L+T104L+S107I | n.d. / n.d. / 4.85 | 4.85 | 1 of 9 (3.17)
T28H+R100C+S107V | 2.83 / 2.35 / 3.10 | 2.76 | 4 of 9 (3.26)
Y32M+G33S+Y52T | 2.77 / 2.65 / 2.77 | 2.73 | 2 of 9 (3.65)
L29W+V50M+G99C | 5.84 / n.d. / n.d. | 5.84 | 2 of 9 (4.10)
G33C+Y60P+T104D | 4.74 / n.d. / n.d. | 4.74 | 1 of 9 (3.47)
T58Q+F59I+D62V | n.d. / 3.51 / n.d. | 3.51 | 2 of 9 (3.39)
N30H+S31D+S35E | n.d. / n.d. / 3.08 | 3.08 | 1 of 9 (4.08)
Y32H+G33Q+S53P | n.d. / n.d. / n.d. | n.d. | 0 of 9
S31E+T104Q | 0.06 / 0.46 / 0.18 | 0.23 | 2 of 9 (3.37)
G26R+T28D+F59C | n.d. / n.d. / n.d. | n.d. | 2 of 9 (4.41)
I34M+G55M+V64M | n.d. / n.d. / 3.19 | 3.19 | 0 of 9
S31A+K65R+A101T | 1.13 / 0.91 / 0.80 | 0.95 | 1 of 9 (3.68)
L29N+F59C+S63V | n.d. / n.d. / n.d. | n.d. | 1 of 9 (2.22)
S31C+G99D+R100D | n.d. / n.d. / n.d. | n.d. | 0 of 9
F27N+Y32S+G103F | n.d. / 5.11 / 4.96 | 5.03 | 6 of 9 (3.62)
Y32C+S53M+S107C | n.d. / n.d. / n.d. | n.d. | 2 of 9 (3.34)
Y60E+V64G+R100W | n.d. / n.d. / n.d. | n.d. | 0 of 9

Top 3 of the variants detected in all replicates, tightest first:

changes | log10 Kd, replicates | mean, log10 nM | control signals
S31E+T104Q | 0.06 / 0.46 / 0.18 | 0.23 | 2 of 9 (3.37)
S31A+K65R+A101T | 1.13 / 0.91 / 0.80 | 0.95 | 1 of 9 (3.68)
R56D+G99D+F105Q | 1.27 / 1.39 / 1.39 | 1.35 | 4 of 9 (4.92)